## Binding of CDR-mutated scFvs to a peptide of the spike HR2 region

The measurements come from Engelhart et al. 2022 (doi:10.1038/s41597-022-01779-4) through the FLAb antibody collection.

Target: peptide PDVDLGDISGINAS, taken from heptad repeat 2 (HR2) of SARS-CoV-2 spike.

Parent scFv Ab-14: VH joined to VL by three GGGGS repeats. Changes lie in the heavy chain CDRs alone.
VH: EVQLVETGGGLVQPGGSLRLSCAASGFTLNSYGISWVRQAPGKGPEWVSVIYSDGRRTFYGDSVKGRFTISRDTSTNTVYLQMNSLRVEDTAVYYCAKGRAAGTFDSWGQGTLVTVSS
VL: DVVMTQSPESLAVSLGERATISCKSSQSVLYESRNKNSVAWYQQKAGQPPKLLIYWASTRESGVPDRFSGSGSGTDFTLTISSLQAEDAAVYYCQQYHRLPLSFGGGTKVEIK

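The parent was found by panning a naive human phage display library on the peptide. Variants in AAYL49 differ from the parent at up to three CDR positions; double and triple changes were sampled at random. AlphaSeq pools MATa yeast showing the antibodies with MATalpha yeast showing the peptide. Binding brings cells together so that they mate, and sequencing counts the barcode pairs among the diploids. The ratio of observed to expected reads was calibrated, replicate by replicate, on BCL2-family standards whose Kd was known from biolayer interferometry. The assay was run in three technical replicates.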

Positions count from residue 1 of the parent VH; S31D puts D in place of S.
Numbers give log10(Kd / nM), so 0 is 1 nM and 3 is 1 µM. Smaller is tighter.
A mean of the replicates is given; it leaves out those without a signal.
Where no diploid with the target was found in that replicate, the entry reads "ND": below detection, most likely a poor binder, though not proof of it.
Background: pairings of library AAYL49 with three empty control strains gave a value in 15% of cases (median 4.06, 5th percentile 2.83). Values in that range, when seen in few replicates, are hard to tell from nonspecific mating. For each scFv, signals with the empty controls are counted beside the result, with their mean in brackets.

changes | replicates, log10 nM | log10 Kd (nM), mean | control signals
S31D T58E F59L | 2.95 / ND / ND | 2.95 | 2/9 (3.23)
L29K N30P | ND / ND / ND | ND | 0/9
N30C Y52N F59A | 5.17 / 3.35 / ND | 4.26 | 5/9 (4.99)
S35R G103I | ND / ND / ND | ND | 0/9
N30E V50Y R100D | ND / 3.77 / ND | 3.77 | 3/9 (3.97)
L29F K65P | ND / ND / ND | ND | 1/9 (3.19)
G99D G103M | ND / ND / ND | ND | 0/9
N30V I51R S53P | ND / ND / ND | ND | 2/9 (3.78)
Y32A I34H Y52S | ND / ND / 3.35 | 3.35 | 0/9
L29P G33A T58D | ND / ND / ND | ND | 1/9 (5.81)
F59E Y60G K65A | ND / ND / ND | ND | 5/9 (4.22)
R56E K65L T104M | 2.39 / 2.56 / 2.83 | 2.59 | 3/9 (4.68)
L29S Y32V Y52E | ND / ND / ND | ND | 0/9
L29A S31K V64Q | ND / ND / ND | ND | 1/9 (3.35)
D54P G103Y T104V | ND / ND / ND | ND | 0/9
F59H Y60A S107G | 3.69 / ND / ND | 3.69 | 2/9 (3.84)
S35M G61A G103P | 3.80 / ND / 5.71 | 4.76 | 3/9 (3.65)
L29Y I51N D54S | 3.95 / ND / ND | 3.95 | 1/9 (3.11)
S35V G55E G103W | ND / ND / ND | ND | 0/9
Y60C G61A G99D | ND / ND / ND | ND | 1/9 (3.21)
I34W Y52I K65Q | ND / ND / ND | ND | 0/9
G33M T58H A101D | ND / ND / ND | ND | 0/9
D62L T104C | ND / ND / 5.54 | 5.54 | 0/9
T58R D62K F105H | ND / ND / ND | ND | 0/9
G26I K65S G103R | ND / ND / ND | ND | 0/9
T28M G33I V64T | ND / ND / ND | ND | 0/9
Y32Q Y52C | 4.85 / 4.32 / ND | 4.58 | 0/9
R56P Y60P | ND / ND / 4.22 | 4.22 | 2/9 (3.94)
D62M V64E D106E | 4.10 / 4.83 / ND | 4.47 | 3/9 (3.94)
T58E F105Q | 2.09 / 1.86 / 2.38 | 2.11 | 0/9
T28F I34W R100M | ND / 2.73 / ND | 2.73 | 3/9 (3.05)
G26F S35Q F105K | ND / ND / 3.13 | 3.13 | 1/9 (3.07)
Y60R G61K V64G | ND / ND / ND | ND | 1/9 (3.23)
I51K R57H S107F | ND / 3.81 / ND | 3.81 | 1/9 (1.84)
I51R R57L G103T | ND / 3.25 / 3.32 | 3.28 | 1/9 (3.03)
S35A D62F K65L | ND / 4.36 / ND | 4.36 | 2/9 (4.05)
G26S Y60A G99Y | ND / 3.34 / ND | 3.34 | 2/9 (4.00)
Y32C V50L R100S | ND / ND / ND | ND | 0/9

Top 2 of the variants detected in all replicates, tightest first:

{"changes": "T58E F105Q", "replicates, log10 nM": "2.09 / 1.86 / 2.38", "log10 Kd (nM), mean": "2.11", "control signals": "0/9"}
{"changes": "R56E K65L T104M", "replicates, log10 nM": "2.39 / 2.56 / 2.83", "log10 Kd (nM), mean": "2.59", "control signals": "3/9 (4.68)"}